# Experimental properties from OPERA 2.9

From the experimental data distributed with OPERA 2.9.

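OPERA's authors assembled the values from existing databases and did not measure them anew. The files give a single number for a compound and property, which may rest on several reports. Method, purity and exact conditions of the single measurements are not given. Where a salt, mixture or single isomer is drawn, the source does not say that exactly this form was tested. Some entries may be limits or estimates that an upstream database listed as plain numbers.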

The melting point is given in degrees Celsius.
The boiling point refers to atmospheric pressure (760 mmHg), by the definition of the set.
logP is the log10 of the octanol-water partition coefficient; higher is more lipophilic.
Solubility in water is on a log10 molar scale (set defined at 25 °C).
Vapor pressures (log10 mmHg) refer to near room temperature, 15 to 30 °C; higher is more volatile.
Henry's law constant (air-water partitioning) is log10 of atm·m3/mol, nominally at 25 °C.
The unbound fraction in human plasma runs from 0 (all bound) to 1 (all free).
Clint is human hepatic intrinsic clearance in µL/min per million cells; 0 means that no clearance was seen.

The entry for CCOC(=O)N(c1ccccc1)c1ccccc1 [Ethyl diphenylcarbamate] lists logP (octanol/water) 3.33 and log S -3.969 (log10 mol/L) and vapor pressure -5.063 (log10 mmHg). The entry for c1ccc2c(c1)-c1cccc3c1c-2cc1ccccc13 [Benzo(b)fluoranthene] lists BP 481 °C and plasma fu 0.01059. Listed for CC(C)(C)CC(C)(C)SSSC(C)(C)CC(C)(C)C [Bis(2,4,4-trimethyl-2-pentanyl)trisulfane]: log S -7.208 (log10 mol/L) and vapor pressure -3.655 (log10 mmHg). Listed for C=CC1CCC(C2CCC(c3ccc(C)cc3)CC2)CC1 (configuration not stated): mp 66 °C and logP (octanol/water) 4.7 and log S -7.752 (log10 mol/L) and vapor pressure -5.835 (log10 mmHg). For CC1=CCC(C=CC(C)C(C)O)C1(C)C (configuration not stated) the data give log S -3.786 (log10 mol/L) and vapor pressure -2.176 (log10 mmHg). C=CC(CC)CO (configuration not stated) [2-ethylbut-3-en-1-ol] has logP (octanol/water) 1.7 and vapor pressure -0.07 (log10 mmHg).

Listed for C=C1CCOC(C=C(C)C)C1 (configuration not stated) [2H-Pyran, tetrahydro-4-methylene-2-(2-methyl-1-propen-1-yl)-]: logP (octanol/water) 3.2 and log S -2.51 (log10 mol/L) and vapor pressure -0.362 (log10 mmHg). The entry for CCCCC(CC)C(c1ccc(O)cc1)c1ccc(O)cc1 (configuration not stated) [4,4'-(2-Ethylhexane-1,1-diyl)diphenol] lists mp 89.8 °C and log S -7.776 (log10 mol/L). For CC(C)CCl [Propane, 1-chloro-2-methyl-] the data give log S -2 (log10 mol/L) and vapor pressure 2.176 (log10 mmHg). Listed for CCOc1ccccc1NC(=O)C(=O)Nc1ccccc1CC [N-(2-Ethoxyphenyl)-N'-(2-ethylphenyl)oxamide]: logP (octanol/water) 4.75 and log S -6.018 (log10 mol/L) and vapor pressure -8.381 (log10 mmHg). CCCCC(CC)C(=O)OCC (configuration not stated) [Hexanoic acid, 2-ethyl-, ethyl ester] is reported with logP (octanol/water) 3.9 and log S -3.423 (log10 mol/L) and vapor pressure -0.133 (log10 mmHg). Listed for CCCCCCCC(=O)CC(=O)c1ccccc1 [1,3-Decanedione, 1-phenyl-]: mp 17.06 °C and log S -5.804 (log10 mol/L).

Listed for COc1ccccc1C=Cc1ccc(-c2ccc(C=Cc3ccccc3OC)cc2)cc1 [1,1'-Biphenyl, 4,4'-bis[2-(2-methoxyphenyl)ethenyl]-]: mp 219.6 °C and logP (octanol/water) 7.7 and log S -7.145 (log10 mol/L). CCCCCCOC(=O)c1ccccc1O [Hexyl salicylate] has mp -4.15 °C and vapor pressure -3.238 (log10 mmHg). CC1C2CC(CC2C2CCCC(O)C2)C1(C)C (configuration not stated) [3-(5,5,6-Trimethylbicyclo[2.2.1]hept-2-yl)cyclohexanol] has mp -9.915 °C and logP (octanol/water) 5.07 and log S -4.602 (log10 mol/L). CCCCCCCCCCCC[S+](CC)C(C)CC#N.F[B-](F)(F)F (configuration not stated) is reported with mp 24 °C and logP (octanol/water) 0.75 and log S -1.109 (log10 mol/L) and vapor pressure -5.157 (log10 mmHg). The entry for CCCCCCCCC(=O)OCC(COC(=O)CCCCCCCC)(COC(=O)CCCCCCCC)COC(=O)CCCCCCCC lists mp 4 °C and log S -8.366 (log10 mol/L) and vapor pressure -5.292 (log10 mmHg). The entry for Nc1nc(Cl)nc2c1ncn2[C@H]1C[C@H](O)[C@@H](CO)O1 [Cladribine] lists log S -1.653 (log10 mol/L) and plasma fu 0.9386.

The entry for CCC1(O)CCCC1CCC(C)C (configuration not stated) [Cyclopentanol, 1-ethyl-2-(3-methylbutyl)-] lists BP 235.2 °C and logP (octanol/water) 2.4 and log S -2.856 (log10 mol/L) and vapor pressure -0.248 (log10 mmHg). For CC(=O)NCCO [N-(2-Hydroxyethyl)acetamide] the data give logP (octanol/water) 0.324 and vapor pressure -2.559 (log10 mmHg). C=C[Si]1(C)O[Si](C)(C=C)O[Si](C)(C=C)O[Si](C)(C=C)O1 (configuration not stated) [1,3,5,7-Tetramethyl-1,3,5,7-tetravinylcyclotetrasiloxane] has logP (octanol/water) 6.47 and vapor pressure -0.198 (log10 mmHg). Cc1cccc(Cl)c1C [1,2-Dimethyl-3-chlorobenzene] is reported with mp -23 °C and BP 191.3 °C and logP (octanol/water) 4.1 and log S -3.845 (log10 mol/L) and vapor pressure -0.512 (log10 mmHg). Cl.Oc1ncccn1 [Pyrimidine-2-ol hydrochloride] is reported with logP (octanol/water) -1.61 and vapor pressure -4.534 (log10 mmHg). The entry for O=c1[nH]cn[nH]1 [3H-1,2,4-Triazol-3-one, 1,2-dihydro-] lists mp 236.5 °C and vapor pressure -4.648 (log10 mmHg).

The entry for CC(C)O [Isopropanol] lists plasma fu 0.9214 and Clint 0.2182 µL/min/10^6 cells. CN(C)[C@@H]1C(O)=C(C(N)=O)C(=O)[C@@]2(O)C(O)=C3C(=O)c4c(O)ccc(Cl)c4[C@@H](O)[C@H]3C[C@@H]12 [Demeclocycline] has mp 221.5 °C and plasma fu 0.5575. The entry for CC(C)NCC(O)COc1ccc(CCOCC2CC2)cc1 (configuration not stated) [Betaxolol] lists log S -4.014 (log10 mol/L) and Clint 2.535 µL/min/10^6 cells. CC1(C)[C@H]2[C@H](C(Br)(Br)Br)OC(=O)[C@H]21 has mp 86.85 °C and logP (octanol/water) 2.33. The entry for CC1CCC(C(C)(C)O)C(O)C1 (configuration not stated) [p-Menthane-3,8-diol] lists log S -2.77 (log10 mol/L) and vapor pressure -2.866 (log10 mmHg) and log H -9.368 (log10 atm·m3/mol). For COC(=O)C=C1CCCC1 [Methyl cyclopentylideneacetate] the data give mp -56 °C and log S -1.973 (log10 mol/L) and vapor pressure -0.465 (log10 mmHg).

For O=C(CCS)OCC(COC(=O)CCS)(COC(=O)CCS)COC(=O)CCS the data give logP (octanol/water) 2.915 and log S -5.123 (log10 mol/L) and vapor pressure -5.502 (log10 mmHg). Listed for CCCC1=CC(=O)OC1O (configuration not stated) [5-Hydroxy-4-propylfuran-2(5H)-one]: mp -73.8 °C and logP (octanol/water) 0.6 and vapor pressure -3.954 (log10 mmHg).

The last 3 entries again:

Listed for COC(=O)C=C1CCCC1 [Methyl cyclopentylideneacetate]: mp -56 °C and log S -1.973 (log10 mol/L) and vapor pressure -0.465 (log10 mmHg).
Listed for O=C(CCS)OCC(COC(=O)CCS)(COC(=O)CCS)COC(=O)CCS: logP (octanol/water) 2.915 and log S -5.123 (log10 mol/L) and vapor pressure -5.502 (log10 mmHg).
Listed for CCCC1=CC(=O)OC1O (configuration not stated) [5-Hydroxy-4-propylfuran-2(5H)-one]: mp -73.8 °C and logP (octanol/water) 0.6 and vapor pressure -3.954 (log10 mmHg).